According to patent publication US20190276542A1:

Target: human CTLA4 expressed on Jurkat T cells (human) (UniProt P16410)
Experiment: cell-based or functional assay

anti-hCTLA4 antibody 10D1 (ipilimumab)
IC50, luciferase (RLU), CTLA4 Dual-Cell Reporter Assay (Jurkat cells with hCTLA4 plus Raji cells): 5.19 nM
IC50, luciferase reporter assay (Jurkat cells with CTLA4 plus Raji cells with hCD80 and hCD86): 11.6 nM
